For five molecules, IC50 results are on record in PMC2717725 (Journal of medicinal chemistry, 2008).

In this experiment the target is CDK1/cyclin B. Description: CDK1/cyclin B kinase assay. It counts as biochemical, starfish (Marthasterias glacialis). As to conditions: read-out: CDK1 IC50, 15 μM ATP.

With `CN(C)CCO/N=C1/C(=C2/C(=O)Nc3cc(Br)ccc32)Nc2ccccc21` [Compound 5, (2′Z-3′E)-6-Bromoindirubin-3′-[O-(2-dimethylaminoethyl)-oxime]], the IC50 amounted to 490 nM.
For `O=C1Nc2cc(Br)ccc2/C1=C1/Nc2ccccc2/C1=N\OCCN(CCO)CCO` [Compound 9] the value was 600 nM; for `O=C1Nc2cc(Br)ccc2/C1=C1/Nc2ccccc2/C1=N\OCCN1CCN(CCO)CC1` [Compound 13, (2′Z-3′E)-6-Bromoindirubin-3′-(O-{2-[4-(2-hydroxyethyl)piperazin-1-yl]ethyl}oxime)], 600 nM.
Consider `CN(C)CCO/N=C1/C(=C2/C(=O)Nc3cc(Br)ccc32)Nc2ccccc21.Cl` [Compound 16, (2′Z-3′E)-6-Bromoindirubin-3′-[O-(2-dimethylaminoethyl)oxime] Hydrochloride], for which the IC50 was 190 nM.
Turning to `Cl.O=C1Nc2cc(Br)ccc2/C1=C1/Nc2ccccc2/C1=N\OCCN(CCO)CCO` [Compound 20], the IC50 was 1000 nM.
